Molecules are shown by their SMILES. Only a part is listed here, and it is no random draw. Calls of active or inactive are those of the source.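 How the source made its calls: active means inhibition above the mean of test compounds lying between the control limits plus 3 SD of those (cut at about 14% in these data); inactive means the rest.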

Amino acid sequences for entries named in this document (tags omitted). A change or cut given only in a name is not applied to a line headed by its entry.
UniProt P02675: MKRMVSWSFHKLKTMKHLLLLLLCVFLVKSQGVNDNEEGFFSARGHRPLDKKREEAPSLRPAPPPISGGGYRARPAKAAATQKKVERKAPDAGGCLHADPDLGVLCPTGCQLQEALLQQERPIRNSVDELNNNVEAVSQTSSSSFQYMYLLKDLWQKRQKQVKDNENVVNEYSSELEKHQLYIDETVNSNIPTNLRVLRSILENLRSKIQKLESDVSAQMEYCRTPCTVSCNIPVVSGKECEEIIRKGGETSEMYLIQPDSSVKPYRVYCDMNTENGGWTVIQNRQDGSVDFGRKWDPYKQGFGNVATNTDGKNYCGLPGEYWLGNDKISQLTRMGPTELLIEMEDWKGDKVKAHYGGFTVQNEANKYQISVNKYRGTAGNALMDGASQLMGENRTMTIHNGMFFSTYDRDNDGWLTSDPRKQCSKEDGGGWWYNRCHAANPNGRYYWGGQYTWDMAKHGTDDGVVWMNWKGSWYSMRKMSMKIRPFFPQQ

The test addresses Fibrinogen beta chain (Homo sapiens) (UniProt P02675). Description: DD(E) binders in alternate-peptide displacement assay, confirmation, counter-screen for fibrin DD(E)-Tn6 binding project, biochemical, fluorescence polarization, human fibrin (AID 720621).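 Further: 0% = median of compound wells and 100% = wells with Aha-Tn7 blocking peptide.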 Particulars: TRITC-Tn6 fluorescence polarization displacement, at 8.3 µM, active compounds read high, 0% = median of compound wells, not DMSO. (In general: The purpose of a counterscreen is to sort out artefacts and off-target activity.)

As to `Nc1cccc2c([As](=O)(O)O)cccc12`, the inhibition (in general, the percentage by which the read-out fell short of the control) was inactive: 3.01%.

(Values after PubChem BioAssay AID720621 (The Scripps Research Institute Molecular Screening Center, 2013).)
